Among the data in patent US4672068A, “Antihypertensive 1,4-dihydropyridines having a conjugated ester” (Fujirebio Kabushiki Kaisha, priority 1984, dated 1987) are LD50 values, retold here.

The series can be described thus: in vivo. Conditions: mouse, iv. The procedure:
Acute toxicity of several derivatives was tested with male ddy mice weighed 15-30 grams by the up and down method. Each derivative was dissolved in 1.5% PVP/ethanol solution, and diluted with a saline solution. Such derivative solution was injected into the caudal vein, and the acute toxicity was determined.

Where only a bound is given, the exact number is not on record here.

Consider `COC(=O)C1=C(C)NC(C)=C(C(=O)OC/C=C/c2ccccc2)C1c1cccc([N+](=O)[O-])c1` (stereo not drawn) [Example 1, cinnamyl methyl 4-(3-nitrophenyl)-2,6-dimethyl-1,4-dihydropyridine-3,5-dicarboxylate (trans)], for which the median lethal dose (LD50) is above 150 mg/kg.
With `COC(=O)C1=C(C)NC(C)=C(C(=O)OC/C=C\c2ccccc2)C1c1cccc([N+](=O)[O-])c1` (stereo not drawn) [Example 56, Methyl (Z)-3-phenyl-2-propenyl 4-(3-nitrophenyl)-2,6-dimethyl-1,4-dihydropyridine-3,5-dicarboxylate (cis)] the figure was above 150 mg/kg.

For orientation: LD50 means the dose expected to kill half of the subjects tested. Low values mean a more toxic substance, high ones a less toxic substance.
